Assays:
[1] = target: T1, human MC1 receptor (MC1R) (Homo sapiens, UniProt Q01726); assay: cAMP HTRF functional assay, agonist mode, MC1R (Example 2, Table 19); conditions: for % Activation Average: % of reference agonist activity at EC100; for % Activation 1: replicate 1, % of reference agonist activity at EC100; for % Activation 2: replicate 2, % of reference agonist activity at EC100
[2] = target: T1, human MC1 receptor (MC1R); assay: Radioligand binding competition, MC1R (Example 2, Tables 18 and 25, FIG. 9); conditions: for % Binding Average: residual binding of radioligand; for % Binding 1: replicate 1, residual binding of radioligand; for % Binding 2: replicate 2, residual binding of radioligand
[3] = target: T1, human MC1 receptor (MC1R); assay: cAMP HTRF functional assay, antagonist mode, MC1R (Example 2, Table 20); conditions: for % Inhibition Average: % inhibition of reference agonist at EC80; for % Inhibition 1: replicate 1, % inhibition of reference agonist at EC80; for % Inhibition 2: replicate 2, % inhibition of reference agonist at EC80
[4] = target: melanocortin 1 receptor (MC1R) (Homo sapiens, UniProt Q01726); assay: cAMP accumulation assay (HTRF), agonist and/or antagonist activity at MC1R (Example 1, Table 11); conditions: dose-response; for EC50: cAMP
[5] = target: human melanocortin 3 receptor (MC3R) (Homo sapiens, UniProt P41968); assay: cAMP accumulation assay (HTRF), antagonist and/or agonist activity at MC3R (Example 1, Table 12, FIGS. 1-4); conditions: MC3R, antagonist activity, dose-response; for IC50: cAMP
[6] = target: melanocortin 5 receptor (MC5R) (Homo sapiens, UniProt P33032); assay: cAMP accumulation assay (HTRF), agonist and/or antagonist activity at MC5R (Example 1, Table 14); conditions: dose-response against MC5R
[7] = target: human melanocortin 4 receptor (MC4R) (Homo sapiens, UniProt P32245); assay: cAMP accumulation assay (HTRF), antagonist and/or agonist activity at MC4R (Example 1, Table 13, FIGS. 5-8); conditions: Table 13, dose-response against MC4R, cAMP; for Top (%): top of curve

Protein sequences, listed by entry. Tags and fused reporters are not part of them.
UniProt Q01726, whole entry: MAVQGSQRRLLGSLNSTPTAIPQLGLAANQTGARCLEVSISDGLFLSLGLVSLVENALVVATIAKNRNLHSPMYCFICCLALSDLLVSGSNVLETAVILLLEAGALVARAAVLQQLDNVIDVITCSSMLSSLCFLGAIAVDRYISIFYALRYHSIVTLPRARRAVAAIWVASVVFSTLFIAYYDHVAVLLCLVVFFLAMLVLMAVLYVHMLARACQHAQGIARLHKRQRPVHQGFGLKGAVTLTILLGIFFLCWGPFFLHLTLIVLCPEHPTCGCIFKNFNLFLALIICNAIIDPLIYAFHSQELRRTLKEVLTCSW
UniProt P41968, whole entry: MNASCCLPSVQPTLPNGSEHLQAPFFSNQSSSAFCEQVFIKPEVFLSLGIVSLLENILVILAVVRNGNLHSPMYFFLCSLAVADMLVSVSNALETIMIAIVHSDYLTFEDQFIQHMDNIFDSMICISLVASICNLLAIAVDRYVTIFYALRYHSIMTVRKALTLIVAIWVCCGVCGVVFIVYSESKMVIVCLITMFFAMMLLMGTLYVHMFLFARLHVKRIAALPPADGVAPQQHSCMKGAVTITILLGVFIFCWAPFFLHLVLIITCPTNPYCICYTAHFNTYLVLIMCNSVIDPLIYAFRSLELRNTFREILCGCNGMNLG
UniProt P33032, whole entry: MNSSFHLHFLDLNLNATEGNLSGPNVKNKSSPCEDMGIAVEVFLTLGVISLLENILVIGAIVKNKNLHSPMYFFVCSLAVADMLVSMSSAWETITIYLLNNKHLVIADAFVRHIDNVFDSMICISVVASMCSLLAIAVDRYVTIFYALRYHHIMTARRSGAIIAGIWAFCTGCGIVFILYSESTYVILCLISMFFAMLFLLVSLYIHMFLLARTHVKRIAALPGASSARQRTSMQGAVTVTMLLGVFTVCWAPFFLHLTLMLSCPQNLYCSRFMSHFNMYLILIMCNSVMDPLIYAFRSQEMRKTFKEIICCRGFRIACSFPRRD
UniProt P32245, whole entry: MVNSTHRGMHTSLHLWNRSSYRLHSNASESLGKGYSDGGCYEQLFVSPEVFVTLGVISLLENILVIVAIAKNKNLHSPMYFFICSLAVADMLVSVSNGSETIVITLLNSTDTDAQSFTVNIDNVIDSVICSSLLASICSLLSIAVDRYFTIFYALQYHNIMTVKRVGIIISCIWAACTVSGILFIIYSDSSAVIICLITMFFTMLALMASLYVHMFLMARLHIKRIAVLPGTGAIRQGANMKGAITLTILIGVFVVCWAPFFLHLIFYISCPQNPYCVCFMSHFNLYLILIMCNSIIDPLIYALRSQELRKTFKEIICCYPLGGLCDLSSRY

EC50 [4] [nM]	IC50 [5] [nM]	EC50 [6] [nM]	IC50 [7] [nM]	SMILES	other results
0.33				CCCC[C@H](NC(C)=O)C(=O)N[C@H]1CC(=O)NCCCC[C@@H](C(=O)N[C@@H](C(=O)N2CCC[C@@H]2C(N)=O)C(C)C)NC(=O)[C@H](Cc2c[nH]c3ccccc23)NC(=O)[C@H](CCCN=C(N)N)NC(=O)[C@@H](Cc2ccc3ccccc3c2)NC(=O)[C@@H]2CCCN2C1=O	% Activation Average ([1]; 10 nM): 83.69%; % Activation 1 ([1]; 10 nM): 86.37%; % Activation 2 ([1]; 10 nM): 81.02%; % Activation Average ([1]; 100 nM): 93.47%; % Activation 1 ([1]; 100 nM): 95.53%; % Activation 2 ([1]; 100 nM): 91.40%; % Binding Average ([2]; Table 18, 10 nM): 116.84%; % Binding 1 ([2]; Table 18, 10 nM): 118.16%; % Binding 2 ([2]; Table 18, 10 nM): 115.53%; % Binding Average ([2]; Table 18, 100 nM): 111.54%; % Binding 1 ([2]; Table 18, 100 nM): 111.27%; % Binding 2 ([2]; Table 18, 100 nM): 111.81%; % Inhibition Average ([3]; 10 nM): −9.63%; % Inhibition 1 ([3]; 10 nM): −10.15%; % Inhibition 2 ([3]; 10 nM): −9.10%; % Inhibition Average ([3]; 100 nM): −14.53%; % Inhibition 1 ([3]; 100 nM): −14.89%; % Inhibition 2 ([3]; 100 nM): −14.17%; Hill Coefficient [4]: 1.23; Top [4]: 97.94%
5.79	17.2	0.024	16.4	CCCC[C@H](NC(C)=O)C(=O)N[C@@H](CC(=O)O)C(=O)N1CCC[C@H]1C(=O)N[C@H](Cc1ccc2ccccc2c1)C(=O)N[C@@H](CCCNC(=N)N)C(=O)N[C@@H](Cc1c[nH]c2ccccc12)C(=O)N[C@@H](CCCCN)C(=O)N[C@@H](C(=O)N1CCC[C@@H]1C(N)=O)C(C)C	Hill Coefficient [5]: 0.83; Top [5]: 94.81%; Hill Coefficient [6]: 1.15; Top (%) ([6]; top of curve): 101.47%; Hill Coefficient [7]: 1.19; Top (%) [7]: 94.30%; Hill Coefficient [4]: 0.91; Top [4]: 95.46%
100	12.4	1.9	500	CCCC[C@H](NC(C)=O)C(=O)N[C@H]1CC(=O)NCCCC[C@@H](C(=O)N[C@@H](CC(=O)O)C(=O)N2CCC[C@@H]2C(N)=O)NC(=O)[C@H](Cc2c[nH]c3ccccc23)NC(=O)[C@H](CCCNC(=N)N)NC(=O)[C@@H](Cc2ccc3ccccc3c2)NC(=O)[C@@H]2CCCN2C1=O	
47	17.6	0.05	14	CCCC[C@H](NC(C)=O)C(=O)N[C@H]1CC(=O)NCCCC[C@@H](C(=O)N[C@@H](C(=O)N2CCC[C@@H]2C(N)=O)C(C)C)NC(=O)[C@H](Cc2c[nH]c3ccccc23)NC(=O)[C@H](CCCNC(=N)N)NC(=O)[C@@H](Cc2ccc3ccccc3c2)NC(=O)[C@H](CC(C)C)NC1=O	
> 1000	> 1000	270	> 1000	CCCC[C@H](NC(C)=O)C(=O)N[C@H]1CC(=O)NCCCC[C@@H](C(=O)N[C@@H](C(=O)N2CCC[C@@H]2C(N)=O)C(C)C)NC(=O)[C@H](Cc2c[nH]c3ccccc23)NC(=O)[C@H](CCCNC(=N)N)NC(=O)[C@@H](Cc2ccc3ccccc3c2)NC(=O)CCNC1=O	
36	5.92	12	230	CC[C@@H](C)[C@@H](NC(C)=O)C(=O)N[C@H]1CC(=O)NCCCC[C@@H](C(=O)N[C@@H](C(=O)N2CCC[C@@H]2C(N)=O)C(C)C)NC(=O)[C@H](Cc2c[nH]c3ccccc23)NC(=O)[C@H](CCCNC(=N)N)NC(=O)[C@@H](Cc2ccc3ccccc3c2)NC(=O)[C@@H]2CCCN2C1=O	
3.5	2.75	0.35	23	CCCC[C@H](NC(C)=O)C(=O)N[C@@H]1CSSC(C)(C)[C@@H](C(=O)N[C@@H](C(=O)N2CCC[C@@H]2C(N)=O)C(C)C)NC(=O)[C@H](Cc2c[nH]c3ccccc23)NC(=O)[C@H](CCCNC(=N)N)NC(=O)[C@@H](Cc2ccc3ccccc3c2)NC(=O)[C@@H]2CCCN2C1=O	
110	10.4	0.08	350	CCCC[C@H](NC(C)=O)C(=O)N[C@@H](CCCC)C(=O)N[C@H]1CC(=O)NCCCC[C@@H](C(=O)N[C@@H](C(=O)N2CCC[C@@H]2C(N)=O)C(C)C)NC(=O)[C@H](Cc2c[nH]c3ccccc23)NC(=O)[C@H](CCCNC(=N)N)NC(=O)[C@@H](Cc2ccc3ccccc3c2)NC(=O)[C@@H]2CCCN2C1=O	
430	2.97	15	160	CC(=O)N[C@@H](C(=O)N[C@H]1CC(=O)NCCCC[C@@H](C(=O)N[C@@H](C(=O)N2CCC[C@@H]2C(N)=O)C(C)C)NC(=O)[C@H](Cc2c[nH]c3ccccc23)NC(=O)[C@H](CCCNC(=N)N)NC(=O)[C@@H](Cc2ccc3ccccc3c2)NC(=O)[C@@H]2CCCN2C1=O)C(C)C	
110	5.41	0.53	160	CCCC[C@H](NC(C)=O)C(=O)N[C@H]1CC(=O)NCCCC[C@@H](C(=O)N[C@@H](C(=O)N[C@@H](CC(=O)O)C(N)=O)C(C)C)NC(=O)[C@H](Cc2c[nH]c3ccccc23)NC(=O)[C@H](CCCNC(=N)N)NC(=O)[C@@H](Cc2ccc3ccccc3c2)NC(=O)[C@@H]2CCCN2C1=O	
27	9.31	15	29	CCCC[C@H](NC(C)=O)C(=O)N[C@H]1CSSC(C)(C)[C@@H](C(=O)N[C@@H](C(=O)N2CCC[C@@H]2C(N)=O)C(C)C)NC(=O)[C@H](Cc2c[nH]c3ccccc23)NC(=O)[C@H](CCCNC(=N)N)NC(=O)[C@@H](Cc2ccc3ccccc3c2)NC(=O)[C@@H]2CCCN2C1=O	
200	251	0.35	250	CCCC[C@H](NC(C)=O)C(=O)N[C@@H](CCCC)C(=O)N[C@@H](CCCC)C(=O)N[C@@H](CCCC)C(=O)N[C@H]1CC(=O)NCCCC[C@@H](C(=O)N[C@@H](C(=O)N2CCC[C@@H]2C(N)=O)C(C)C)NC(=O)[C@H](Cc2c[nH]c3ccccc23)NC(=O)[C@H](CCCNC(=N)N)NC(=O)[C@@H](Cc2ccc3ccccc3c2)NC(=O)[C@@H]2CCCN2C1=O	
27	3.49	0.15	30	CCCC[C@H](NC(C)=O)C(=O)N[C@H]1CC(=O)NCCCC[C@@H](C(=O)N[C@H](CC(=O)O)C(=O)N2CCC[C@@H]2C(N)=O)NC(=O)[C@H](Cc2c[nH]c3ccccc23)NC(=O)[C@H](CCCNC(=N)N)NC(=O)[C@@H](Cc2ccc3ccccc3c2)NC(=O)[C@@H]2CCCN2C1=O	
0.13	0.74	0.05	2.1	CCCC[C@H](NC(C)=O)C(=O)N[C@H]1CC(=O)NCCCC[C@@H](C(=O)N[C@H](CCCCN)C(=O)N2CCC[C@@H]2C(N)=O)NC(=O)[C@H](Cc2c[nH]c3ccccc23)NC(=O)[C@H](CCCNC(=N)N)NC(=O)[C@@H](Cc2ccc3ccccc3c2)NC(=O)[C@@H]2CCCN2C1=O	
13	0.96	0.02	41	CCCC[C@H](NC(C)=O)C(=O)N[C@H]1CC(=O)NCCC[C@@H](C(=O)N[C@@H](C(=O)N2CCC[C@@H]2C(N)=O)C(C)C)NC(=O)[C@H](Cc2c[nH]c3ccccc23)NC(=O)[C@H](CCCNC(=N)N)NC(=O)[C@@H](Cc2ccc3ccccc3c2)NC(=O)[C@@H]2CCCN2C1=O	
30.3	252	85.4	102	CCCC[C@H](NC(C)=O)C(=O)N[C@@H](Cc1ccccc1)C(=O)N[C@@H](Cc1ccccc1)C(=O)N[C@H]1CC(=O)NCCCC[C@@H](C(=O)N[C@@H](C(=O)N2CCC[C@@H]2C(N)=O)C(C)C)NC(=O)[C@H](Cc2c[nH]c3ccccc23)NC(=O)[C@H](CCCNC(=N)N)NC(=O)[C@@H](Cc2ccc3ccccc3c2)NC(=O)[C@H](Cc2c[nH]cn2)NC(=O)[C@H](Cc2ccccc2)NC1=O	Hill Coefficient [5]: 1.58; Top [5]: 100.22%; Hill Coefficient [6]: 5.39; Hill Coefficient [7]: 6.69; Top (%) [7]: 98.98%; Hill Coefficient [4]: 1.79; Top [4]: 99.27%
> 1000	720	63	> 1000	CC(=O)N[C@H](CC(N)=O)C(=O)N[C@H]1CC(=O)NCCCC[C@@H](C(=O)N[C@@H](C(=O)N2CCC[C@@H]2C(N)=O)C(C)C)NC(=O)[C@H](Cc2c[nH]c3ccccc23)NC(=O)[C@H](CCCNC(=N)N)NC(=O)[C@@H](Cc2ccc3ccccc3c2)NC(=O)[C@@H]2CCCN2C1=O	

From patent US20260382689A1, “METHODS OF PREVENTING AND/OR TREATING SIDE EFFECTS ASSOCIATED WITH ANTI-CANCER AGENTS USING NON-NATURALLY OCCURRING MELANOCORTIN ANALOGS WITH ANTI-GDF-15 ANTIBODIES” (published 2026)
